Measurements: PubChem BioAssay AID588334 (Broad Institute, 2011)
The entries are a selection whose mix differs from that of the whole data set. The source made the active and inactive calls.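 Rule for the calls: active = mean activation of at least 80% with every replicate also reaching 80%; inconclusive = mean reaches 80% but some replicate falls short; inactive = the rest.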

Test: activators of MITF-driven TRPM1 promoter reporter, primary screen, cell-based, SK-MEL-5, luciferase, single point (AID 588334);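 note: 0% = neutral control wells and 100% = parthenolide positive control wells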
Conditions: SK-MEL-5 TRPM1-promoter luciferase, 24 h; at 12.5 µM; active compounds read high; % of positive control, neutral wells = 0

Row | SMILES | activation
1 | CCC(=O)N(c1ccccc1)C1(COC)CCN(CCc2cccs2)CC1 | inactive: 3.6%
2 | CCC(=O)N(c1ccccc1)C1(COC)CCN(CCn2nnn(CC)c2=O)CC1 | inactive: -2.45%
